For assay [1], the species on record is Homo sapiens. Description: Selectivity ratio of Ki for human kappa opioid receptor to Ki for human delta opioid receptor.
For assay [2], the species on record is Homo sapiens. Description: Selectivity ratio of Ki for human mu opioid receptor to Ki for human kappa opioid receptor.
Assay [3] is filed under the species Homo sapiens. The experiment in a line: Selectivity ratio of Ki for human mu opioid receptor to Ki for human delta opioid receptor.

Structures are written as SMILES.

As to `CN1CC[C@]23CCCC[C@H]2[C@H]1Cc1ccc(O)cc13`, the Ratio Ki in the assay filed under Homo sapiens [1] was 1; in the assay filed under Homo sapiens [2], 11; in the assay listed under Homo sapiens [3] it was 20.
For `Oc1ccc2c(c1)[C@@]13CCCC[C@H]1[C@@H](C2)N(CC1CCC1)CC3`, the Ratio Ki in the assay listed under Homo sapiens [2] is 1.

Values taken from ChEMBL document CHEMBL1156604 (Bioorg Med Chem Lett, 2008).
